Values of other authors in article PMC11293113, “Comparing regional brain uptake of incretin receptor agonists after intranasal delivery in CD-1 mice and the APP/PS1 mouse model of Alzheimer’s disease” (Alzheimer's Research & Therapy, 2024).

Conditions: native incretin hormones; cited from earlier work
Procedure: IRAs are forms of these hormones modified to prolong their otherwise very short half-lives in plasma (less than 2 min).

glucose-dependent insulinotropic polypeptide [GIP]
Half-life in plasma: less than 2 min
